Measured values: US6992070B2 (priority 2000, dated 2006)

Test system: ex vivo perfused rabbit heart (ventricular myocytes), Adgal adenovirus gene transfer

Substance: Substance P
- speed of increase in microvascular permeability (compared with bradykinin or serotonin): faster than either bradykinin or serotonin
- pretreatment (exposure) time required for the enhancement of infection (ex vivo perfused heart, pretreatment before Adgal): 2 min
